Results reported in ChEMBL document CHEMBL6078645, “Expanding the Solvent/Protein Region Occupation of the Non-Nucleoside Reverse Transcriptase Inhibitor Binding Pocket for Improved Broad-Spectrum Anti-HIV-1 Efficacy: from Rigid Phenyl-Diarylpyrimidines to Flexible Hydrophilic Piperidine-Diarylpyrimidines” (J Med Chem, 2024).

Target: Human immunodeficiency virus type 1 reverse transcriptase (Human immunodeficiency virus 1, UniProt Q72547)
Experiment: Inhibition of HIV-1 reverse transcriptase

SMILES: Cc1cc(C#N)cc(C)c1Oc1nc(Nc2ccc(C#N)cc2)nc(N)c1Br [ETRAVIRINE]
- EC50: 3 nM
